Test results from patent US20070208088A1, “PQS: A NEW HYDROTROPE FOR SOLUBILIZING LIPOPHILIC COMPOUNDS IN WATER” (ZYMES, LLC, priority 2006, published 2007).

Substance	solubility in water
polyoxyethanyl-ubiquinol-sebacate [PQS-600]	water-soluble
polyoxyethanyl-ubiquinol-sebacate [PQS-1000]	water soluble
